Reference: patent US20200368288A1, “Hierarchic Neural Microphysiological System for Brain Function and Disorders” (The Trustees of Columbia University in the City of New York, priority 2018, published 2020)

Test system: NNet preparations
Assay: Chronic ketamine treatment NNet model of schizophrenia pathophysiology, calcium imaging
Details: ketamine 10 μM final concentration every 24 hours; imaging before and 2 days after

`CNC1(c2ccccc2Cl)CCCCC1=O` (stereo not shown) [ketamine] was tested, and the “neuronal ensembles (clusters of co-active neurons by PCA) identified before treatment” value was “affected”.
